Data: publication PMC8713283 (2021)

The chains behind the UniProt entries cited, without tags or fusion partners. Residues count along the entry.
UniProt P40337, 54-213, chain 1 of 3: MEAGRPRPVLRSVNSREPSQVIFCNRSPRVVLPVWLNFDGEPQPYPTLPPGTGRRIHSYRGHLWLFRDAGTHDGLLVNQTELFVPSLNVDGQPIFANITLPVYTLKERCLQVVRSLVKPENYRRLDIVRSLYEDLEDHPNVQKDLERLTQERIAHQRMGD
VCB (VHL:ElonginC:ElonginB), UniProt Q15370, 1-104, chain 3 of 3: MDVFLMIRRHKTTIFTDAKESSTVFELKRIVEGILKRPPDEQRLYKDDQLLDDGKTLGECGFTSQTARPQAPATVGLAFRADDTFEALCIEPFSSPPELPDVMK

Columns and labels:
[1] = target: T1, VCB (VHL:ElonginC:ElonginB) (UniProt P40337 54-213; Q15369 17-112; Q15370 1-104); assay: FP; ternary with PROTAC MZ1 (21)
[2] = target: T1, VCB (VHL:ElonginC:ElonginB); assay: FP; ternary with PROTAC ARV-771 (22)
[3] = target: T1, VCB (VHL:ElonginC:ElonginB); assay: FP; ternary with PROTAC AB1 (23)
[4] = target: T1, VCB (VHL:ElonginC:ElonginB); assay: FP; ternary with PROTAC OMZ1 (25)
[5] = target: T1, VCB (VHL:ElonginC:ElonginB); assay: FP; ternary with PROTAC AB2 (24)

B1: Brd3-BD2 (306–416) (domain or fragment)
chain: GKLSEHLRYCDSILREMLSKKHAAYAWPFYKPVDAEALELHDYHDIIKHPMDLSTVKRKMDGREYPDAQGFAADVRLMFSNCYKYNPPDHEVVAMARKLQDVFEMRFAKMP
Kd [1]: 15 nM | Kd [2]: 7.8 nM | Kd [3]: 27 nM | Kd [4]: 47 nM | Kd [5]: 20 nM
